The values below are quoted from earlier work in PMC5947850 (ACS infectious diseases, 2017).

As a reminder, the EC50 is the concentration that produces a half-maximal response.

The target in the data set is T1, P. falciparum cytochrome bc1 (Plasmodium falciparum, UniProt Q02768).
T1 sequence (Q02768 1-376): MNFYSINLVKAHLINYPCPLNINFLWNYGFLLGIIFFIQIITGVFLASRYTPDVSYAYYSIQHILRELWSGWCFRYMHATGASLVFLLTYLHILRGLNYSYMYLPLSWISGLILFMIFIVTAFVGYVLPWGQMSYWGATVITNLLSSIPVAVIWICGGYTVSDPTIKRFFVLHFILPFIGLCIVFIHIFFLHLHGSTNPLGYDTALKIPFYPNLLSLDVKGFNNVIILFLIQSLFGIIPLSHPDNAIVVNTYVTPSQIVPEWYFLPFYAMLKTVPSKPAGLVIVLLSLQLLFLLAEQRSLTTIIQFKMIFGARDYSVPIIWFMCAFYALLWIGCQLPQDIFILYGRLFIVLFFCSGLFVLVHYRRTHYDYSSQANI
As to conditions: read-out: P. falciparum cytochrome bc1 EC50; ref Nilsen, et al. 14; cited from earlier work.

For the compound `O=C1C(O)=C([C@H]2CC[C@H](c3ccc(Cl)cc3)CC2)C(=O)c2ccccc21` [Atovaquone, reference compound], the EC50 was 2 nM.
